Experimental findings from US12016922B2, “Stabilized aqueous antibody compositions” (Arecor Limited, priority 2012, dated 2024) are described below.

For one data set, the system named is rituximab. Nature of the data set: Aggregation of rituximab formulations on storage, % HMWS by size exclusion chromatography. The data set is classed as physicochemical. Particulars: rituximab 140 mg/ml, trehalose 200 mM, pH 6.5, 40° C., additive 1 mg/ml.
The next data set relates to Certolizumab pegol. As to the kind of experiment: Aggregation of certolizumab pegol formulations on storage, % HMWS by size exclusion chromatography. The data set is classed as physicochemical. Particulars: Certolizumab pegol 100 mg/ml, 40° C. On the technique in general: SEC sorts molecules by how far they enter the pores of the column.

Structures are written as SMILES.

Take `NCCNCCN` [Diethylenetriamine]: the “% HMWS 26 weeks” value with rituximab amounted to 1.51%.

On to `NCCNCCNCCN` [Triethylenetetramine], for which the “% HMWS 8 weeks” value with Certolizumab pegol (histidine 10 mM pH 6.0, 1,2-propanediol 200 mM, additive 1 mg/ml) is on record as 1.02%; in the data set on Certolizumab pegol (histidine 10 mM pH 6.0, NaCl 150 mM, additive 1 mg/ml), 1.51%; in the data set on Certolizumab pegol (histidine 10 mM pH 6.0, NaCl 150 mM, additive 3 mg/ml), 1.02%.
